Earlier results as cited in US20220273590A1, “COMPOUNDS FOR PREVENTION AND TREATMENT OF POST-OPERATIVE COGNITIVE DYSFUNCTION” (ABREXA PHARMACEUTICALS, INC., priority 2019, published 2022).

Conditions: after coronary artery bypass graft surgery (Mathew et al. 2004); cited from earlier work

Pexelizumab: a humanized monoclonal antibody used as an immunosuppressive drug
effect on POCD: no effect
